Test results: patent US5318901A, “Method for the production of a modified "8-amino acid" cyclosporin derivative” (Merck & Co., Inc., priority 1992, dated 1994)

System: freshly prepared proximal tubules from rabbit
Conditions: 30 μg/ml; 23 hours exposure; 3H-leucine incorporation per ug protein; rabbit proximal tubule suspensions

8-(2-deutero-3-fluoro-D-alanine)cyclosporin A
Mean Specific Activity (± standard error): 92.0 (0.3) percent of control specific ac
